Assay results taken from article PMC2819048 (Molecular cell, 2010).

Experiments:
wild type DnaC [1] = target: T1, wild type DnaC (E. coli, UniProt P0AEF0 1-245); assay: SEC
T1 sequence (looked up): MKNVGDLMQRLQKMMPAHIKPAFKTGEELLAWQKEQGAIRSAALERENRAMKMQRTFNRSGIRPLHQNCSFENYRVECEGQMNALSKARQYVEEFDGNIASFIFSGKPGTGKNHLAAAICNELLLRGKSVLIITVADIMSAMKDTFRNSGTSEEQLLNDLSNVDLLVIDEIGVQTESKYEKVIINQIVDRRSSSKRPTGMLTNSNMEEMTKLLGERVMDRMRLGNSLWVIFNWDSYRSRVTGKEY

wild type DnaC [2] = target: T1, wild type DnaC; assay: SPR

DnaC monomers per oriC plasmid in the isolated prepriming complex (5 mM ATP) (wild type DnaC [1]): ~6 monomers per oriC plasmid | stoichiometry N (wild type DnaC [1]): 3 DnaC monomers per DnaB hexamer | fold increase of affinity with 150 μM ATP against no ATP (wild type DnaC [2]): ~2 fold
B1: DnaB helicase (enzyme, E. coli, UniProt P0ACB0 1-471, looked up)
chain: MAGNKPFNKQQAEPRERDPQVAGLKVPPHSIEAEQSVLGGLMLDNERWDDVAERVVADDFYTRPHRHIFTEMARLQESGSPIDLITLAESLERQGQLDSVGGFAYLAELSKNTPSAANISAYADIVRERAVVREMISVANEIAEAGFDPQGRTSEDLLDLAESRVFKIAESRANKDEGPKNIADVLDATVARIEQLFQQPHDGVTGVNTGYDDLNKKTAGLQPSDLIIVAARPSMGKTTFAMNLVENAAMLQDKPVLIFSLEMPSEQIMMRSLASLSRVDQTKIRTGQLDDEDWARISGTMGILLEKRNIYIDDSSGLTPTEVRSRARRIAREHGGIGLIMIDYLQLMRVPALSDNRTLEIAEISRSLKALAKELNVPVVALSQLNRSLEQRADKRPVNSDLRESGSIEQDADLIMFIYRDEVYHENSDLKGIAEIIIGKQRNGPIGTVRLTFNGQWSRFDNYAGPQYDDE
